Reference: patent US10112926B2 (priority 2014, dated 2018)
Read-outs that look alike come from different tables or passages of the source.

The chains behind the UniProt entries cited, without tags or fusion partners. Where a name states a change or a piece, a line headed by the entry shows the natural chain unless it says otherwise.
UniProt P42338: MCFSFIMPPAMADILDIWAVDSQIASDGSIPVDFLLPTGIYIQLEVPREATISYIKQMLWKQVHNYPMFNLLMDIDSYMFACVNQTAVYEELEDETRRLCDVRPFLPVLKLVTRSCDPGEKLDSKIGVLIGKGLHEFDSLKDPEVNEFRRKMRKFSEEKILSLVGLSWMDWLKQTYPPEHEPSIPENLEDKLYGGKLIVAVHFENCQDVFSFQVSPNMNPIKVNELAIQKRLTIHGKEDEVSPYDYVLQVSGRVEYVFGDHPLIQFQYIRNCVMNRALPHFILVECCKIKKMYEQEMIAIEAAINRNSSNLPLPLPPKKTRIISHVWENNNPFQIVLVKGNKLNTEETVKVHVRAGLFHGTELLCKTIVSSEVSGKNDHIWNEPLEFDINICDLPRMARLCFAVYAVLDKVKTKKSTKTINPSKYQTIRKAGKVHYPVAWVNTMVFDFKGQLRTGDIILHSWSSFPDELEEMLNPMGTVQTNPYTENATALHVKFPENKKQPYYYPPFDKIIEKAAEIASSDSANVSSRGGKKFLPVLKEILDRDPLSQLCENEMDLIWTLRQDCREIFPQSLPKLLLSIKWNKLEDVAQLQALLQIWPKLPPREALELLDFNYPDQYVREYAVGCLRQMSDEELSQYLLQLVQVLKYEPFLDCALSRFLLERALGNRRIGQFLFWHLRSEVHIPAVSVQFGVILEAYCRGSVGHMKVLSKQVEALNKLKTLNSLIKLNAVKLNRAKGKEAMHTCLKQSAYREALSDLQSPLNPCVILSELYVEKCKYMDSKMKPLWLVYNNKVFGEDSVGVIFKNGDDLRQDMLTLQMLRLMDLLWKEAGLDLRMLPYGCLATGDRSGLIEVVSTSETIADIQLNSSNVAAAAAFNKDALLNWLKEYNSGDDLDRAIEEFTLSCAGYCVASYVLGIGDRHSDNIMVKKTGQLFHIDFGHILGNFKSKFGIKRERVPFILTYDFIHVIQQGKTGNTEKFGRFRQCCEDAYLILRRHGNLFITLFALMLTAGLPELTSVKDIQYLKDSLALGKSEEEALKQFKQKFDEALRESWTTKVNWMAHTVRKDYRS
UniProt Q9UBF8: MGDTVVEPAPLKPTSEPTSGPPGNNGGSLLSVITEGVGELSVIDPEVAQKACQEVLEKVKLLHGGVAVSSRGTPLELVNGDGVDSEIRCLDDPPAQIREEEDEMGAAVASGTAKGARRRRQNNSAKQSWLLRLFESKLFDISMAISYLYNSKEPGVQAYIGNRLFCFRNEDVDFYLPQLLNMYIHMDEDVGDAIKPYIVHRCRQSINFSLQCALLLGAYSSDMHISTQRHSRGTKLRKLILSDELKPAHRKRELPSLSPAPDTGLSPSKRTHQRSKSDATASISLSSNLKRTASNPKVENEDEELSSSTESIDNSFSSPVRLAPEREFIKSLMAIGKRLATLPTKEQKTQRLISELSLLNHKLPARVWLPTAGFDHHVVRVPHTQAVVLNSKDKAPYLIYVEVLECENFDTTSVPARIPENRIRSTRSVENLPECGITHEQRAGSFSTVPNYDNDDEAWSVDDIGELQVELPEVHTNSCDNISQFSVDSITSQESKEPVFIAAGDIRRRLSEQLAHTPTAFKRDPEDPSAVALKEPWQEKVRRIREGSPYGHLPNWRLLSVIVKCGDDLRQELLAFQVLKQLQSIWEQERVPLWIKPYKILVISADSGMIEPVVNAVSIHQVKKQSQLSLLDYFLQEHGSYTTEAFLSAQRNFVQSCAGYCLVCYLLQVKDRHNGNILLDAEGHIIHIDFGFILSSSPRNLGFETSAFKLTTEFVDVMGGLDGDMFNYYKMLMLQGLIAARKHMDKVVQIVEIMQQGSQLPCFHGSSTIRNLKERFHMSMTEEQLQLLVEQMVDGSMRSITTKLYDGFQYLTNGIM
UniProt Q8NEB9, whole entry: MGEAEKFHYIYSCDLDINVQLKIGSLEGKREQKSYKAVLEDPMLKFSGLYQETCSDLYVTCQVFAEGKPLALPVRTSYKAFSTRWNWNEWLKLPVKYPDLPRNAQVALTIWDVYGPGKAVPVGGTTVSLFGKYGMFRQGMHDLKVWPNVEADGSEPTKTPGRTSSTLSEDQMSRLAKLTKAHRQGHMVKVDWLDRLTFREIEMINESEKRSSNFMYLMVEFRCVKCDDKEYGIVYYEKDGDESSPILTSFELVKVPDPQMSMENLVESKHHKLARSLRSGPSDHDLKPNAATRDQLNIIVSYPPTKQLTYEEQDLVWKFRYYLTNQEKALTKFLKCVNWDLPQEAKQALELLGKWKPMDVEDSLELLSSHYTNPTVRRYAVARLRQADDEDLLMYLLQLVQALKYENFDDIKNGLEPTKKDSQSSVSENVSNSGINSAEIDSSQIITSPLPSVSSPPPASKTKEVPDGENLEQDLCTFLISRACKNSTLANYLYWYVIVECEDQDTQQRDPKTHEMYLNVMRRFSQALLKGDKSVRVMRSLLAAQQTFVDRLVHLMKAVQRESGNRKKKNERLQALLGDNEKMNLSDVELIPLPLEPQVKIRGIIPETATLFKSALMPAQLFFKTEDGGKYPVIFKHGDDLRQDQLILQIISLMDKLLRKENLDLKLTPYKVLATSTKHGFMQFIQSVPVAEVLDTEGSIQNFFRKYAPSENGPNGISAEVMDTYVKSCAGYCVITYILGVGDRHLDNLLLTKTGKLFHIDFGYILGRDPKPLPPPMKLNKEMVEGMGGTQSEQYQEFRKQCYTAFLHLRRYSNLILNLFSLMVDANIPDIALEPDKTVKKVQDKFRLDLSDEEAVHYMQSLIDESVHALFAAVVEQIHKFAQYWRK
UniProt P42336, whole entry, looked up: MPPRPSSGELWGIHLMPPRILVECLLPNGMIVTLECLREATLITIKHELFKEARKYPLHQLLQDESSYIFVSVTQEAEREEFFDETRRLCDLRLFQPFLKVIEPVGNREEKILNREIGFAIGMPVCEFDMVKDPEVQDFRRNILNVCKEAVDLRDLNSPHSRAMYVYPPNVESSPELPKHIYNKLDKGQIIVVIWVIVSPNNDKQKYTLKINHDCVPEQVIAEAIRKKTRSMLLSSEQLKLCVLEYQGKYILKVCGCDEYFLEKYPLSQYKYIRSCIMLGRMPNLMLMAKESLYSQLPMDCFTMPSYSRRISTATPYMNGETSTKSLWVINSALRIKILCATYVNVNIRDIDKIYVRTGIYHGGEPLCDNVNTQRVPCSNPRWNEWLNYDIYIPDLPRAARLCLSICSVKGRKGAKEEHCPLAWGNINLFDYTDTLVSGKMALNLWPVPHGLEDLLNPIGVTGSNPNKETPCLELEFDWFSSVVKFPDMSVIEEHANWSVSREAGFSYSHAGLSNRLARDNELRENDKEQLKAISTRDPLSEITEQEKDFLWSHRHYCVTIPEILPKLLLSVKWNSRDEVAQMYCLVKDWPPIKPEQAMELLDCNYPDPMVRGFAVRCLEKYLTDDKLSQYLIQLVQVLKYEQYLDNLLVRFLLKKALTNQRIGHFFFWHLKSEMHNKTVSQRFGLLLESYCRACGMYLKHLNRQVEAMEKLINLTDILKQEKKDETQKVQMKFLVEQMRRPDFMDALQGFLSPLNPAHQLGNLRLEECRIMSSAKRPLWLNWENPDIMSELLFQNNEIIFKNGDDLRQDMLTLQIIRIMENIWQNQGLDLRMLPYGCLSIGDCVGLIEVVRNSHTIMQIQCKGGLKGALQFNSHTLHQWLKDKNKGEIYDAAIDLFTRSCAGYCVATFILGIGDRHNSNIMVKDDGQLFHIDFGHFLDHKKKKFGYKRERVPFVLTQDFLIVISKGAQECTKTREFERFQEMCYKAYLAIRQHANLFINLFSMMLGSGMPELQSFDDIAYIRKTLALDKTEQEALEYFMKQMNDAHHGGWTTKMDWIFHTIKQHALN

Assays:
[1] = biological target: T1, PI 3-kinase beta (Rat-1 pBABEpuro Myr-HA-hp110 beta cells) (Homo sapiens (Human), UniProt P42338); test: cell-based
PI 3-kinase beta [2] = biological target: T2, PI 3-kinase beta (Homo sapiens (Human), UniProt P42338); test: biochemical; details: Assay B PI3Kβ IC50 (μM)
PI 4-kinase beta = PI 4-kinase beta (Homo sapiens (Human), UniProt Q9UBF8); test: biochemical
PI 3-kinase beta [3] = biological target: T2, PI 3-kinase beta
Vps34 = Vps34 (Homo sapiens (Human), UniProt Q8NEB9); test: biochemical
[4] = biological target: T3, PI 3-kinase alpha (Rat-1 pBABEpuro Myr-HA-hp110 alpha cells) (Homo sapiens (Human), UniProt P42336); test: cell-based; details: Assay H PI3Kα IC50
[5] = biological target: T1, PI 3-kinase beta (Rat-1 pBABEpuro Myr-HA-hp110 beta cells); test: cell-based; details: Assay I PI3Kβ IC50
PI 3-kinase alpha = PI 3-kinase alpha (Homo sapiens (Human), UniProt P42336); details: read-out: Assay A PI3Kα IC50
[6] = biological target: T3, PI 3-kinase alpha (Rat-1 pBABEpuro Myr-HA-hp110 alpha cells); test: cell-based

Structure (SMILES) | IC50 [1] | IC50 (PI 3-kinase alpha) | IC50 [6] | IC50 (PI 3-kinase beta [3]; read-out: Assay B PI3Kβ IC50) | further results
Cc1ncc(-c2cc(-c3cc(S(=O)(=O)N[C@H]4CC[C@H](O)C4)ccc3C)cnc2N)o1 (racemic) [Example 104.4, (+/−)trans-3-(6-amino-5-(2-methyloxazol-5-yl)pyridin-3-yl)-N-(3-hydroxycyclopentyl)-4-methylbenzenesulfon-amide] | 7890 nM |  |  |  | IC50 (PI 3-kinase beta [2]): 1 µM
Cc1ncc(-c2cc(-c3cc(S(=O)(=O)N[C@H]4CC[C@@H](O)C4)ccc3C)cnc2N)o1 (racemic) [Example 104.16, (+/−)-cis-3-(6-amino-5-(2-methyloxazol-5-yl)pyridin-3-yl)-N-(3-hydroxycyclopentyl)-4-methylbenzenesulfon-amide] | 5060 nM |  |  |  | IC50 (PI 3-kinase beta [2]): > 10 µM
COCCNS(=O)(=O)c1cc(-c2cnc(N)c(C(=O)c3cccnc3)n2)ccc1C(F)(F)F [(viii), reference compound] |  |  |  |  | IC50 (PI 4-kinase beta; Assay D PI4Kβ): 0.29 µM; IC50 (PI 3-kinase beta [3]; read-out: Assay B PI3Kβ): 460 nM
CNC(=O)c1nc(-c2ccc(Cl)c(S(=O)(=O)Nc3cccc(F)c3C)c2)cnc1N [(xi), reference compound] |  |  |  |  | IC50 (PI 4-kinase beta; Assay D PI4Kβ): 0.41 µM; IC50 (Vps34): 1600 nM
Cc1cc(-c2cc(-c3cc(S(=O)(=O)N[C@H]4C[C@H](O)C4)ccc3C)cnc2N)on1 [Example 36b, trans-3-(6-Amino-5-(3-methylisoxazol-5-yl)pyridin-3-yl)-N-(−3-hydroxycyclobutyl)-4-methylbenzenesulfonamide] |  |  |  |  | IC50 [4]: > 10000 nM; IC50 [5]: 9630 nM; IC50 (Vps34): > 10000 nM
Cc1ncc(-c2cc(-c3cc(S(=O)(=O)N4CC(CO)C4)ccc3C)cnc2N)s1 [Example 83.1, (1-((3-(6-Amino-5-(2-methylthiazol-5-yl)pyridin-3-yl)-4-methylphenyl)sulfonyl)azetidin-3-yl)methanol] |  |  |  |  | IC50 (PI 4-kinase beta; Assay D PI4Kβ IC50 (μM)): 2.5 µM; IC50 (Vps34): 4600 nM
Cc1ccc(S(=O)(=O)NCC(C)(C)O)cc1-c1cnc(N)c(-c2cnco2)c1 [Example 94a, 3-(6-amino-5-(oxazol-5-yl)pyridin-3-yl)-N-(2-hydroxy-2-methylpropyl)-4-methylbenzenesulfonamide] | > 10000 nM | 810 nM | 3860 nM | 1800 nM | 
Cc1cc(-c2cc(-c3cc(S(=O)(=O)NO[C@H]4C[C@H](O)C4)ccc3C)cnc2N)on1 [Example 95, trans-3-(6-amino-5-(3-methylisoxazol-5-yl)pyridin-3-yl)-N-((1r,3r)-3-hydroxycyclobutoxy)-4-methylbenzenesulfonamide] | 2880 nM | 100 nM | 380 nM | 690 nM | 
Cc1nnc(-c2cc(-c3cc(S(=O)(=O)NCC(C)(C)O)ccc3C)cnc2N)s1 [Example 102, 3-(6-amino-5-(5-methyl-1,3,4-thiadiazol-2-yl)pyridin-3-yl)-N-(2-hydroxy-2-methylpropyl)-4-methylbenzenesulfonamide] | > 10000 nM | 3100 nM | > 10000 nM | 1750 nM | 
Cc1ncc(-c2cc(-c3cc(S(=O)(=O)NCC4CC(O)C4)ccc3C)cnc2N)o1 (stereo not shown) [Example 104.1, 3-(6-amino-5-(2-methyloxazol-5-yl)pyridin-3-yl)-N-((3-hydroxycyclobutyl)methyl)-4-methylbenzenesulfon-amide] | > 10000 nM | 180 nM | 3250 nM | > 10000 nM | 
Cc1ncc(-c2cc(-c3cc(S(=O)(=O)NCC(C)(C)CO)ccc3C)cnc2N)o1 [Example 104.2, 3-(6-amino-5-(2-methyloxazol-5-yl)pyridin-3-yl)-N-(3-hydroxy-2,2-dimethylpropyl)-4-methylbenzenesulfon-amide] | 3260 nM | 310 nM | 2930 nM | > 10000 nM | 
Cc1ncc(-c2cc(-c3cc(S(=O)(=O)NCCO)ccc3C)cnc2N)o1 [Example 104.5, 3-(6-amino-5-(2-methyloxazol-5-yl)pyridin-3-yl)-N-(2-hydroxyethyl)-4-methylbenzenesulfon-amide] | > 10000 nM | 350 nM | 6620 nM | > 10000 nM | 
Cc1ncc(-c2cc(-c3cc(S(=O)(=O)NCCCO)ccc3C)cnc2N)o1 [Example 104.6, 3-(6-amino-5-(2-methyloxazol-5-yl)pyridin-3-yl)-N-(3-hydroxypropyl)-4-methylbenzenesulfon-amide] | > 10000 nM | 220 nM | 5290 nM | > 10000 nM | 
Cc1ncc(-c2cc(-c3cc(S(=O)(=O)NCC4(O)COC4)ccc3C)cnc2N)o1 [Example 104.7, 3-(6-amino-5-(2-methyloxazol-5-yl)pyridin-3-yl)-N-((3-hydroxyoxetan-3-yl)methyl)-4-methylbenzenesulfon-amide] | > 10000 nM | 310 nM | > 10000 nM | > 10000 nM | 
Cc1ncc(-c2cc(-c3cc(S(=O)(=O)NCC(F)(F)F)ccc3C)cnc2N)o1 [Example 104.9, 3-(6-amino-5-(2-methyloxazol-5-yl)pyridin-3-yl)-4-methyl-N-(2,2,2-trifluoroethyl)benzene-sulfonamide] | 3490 nM | 220 nM | 2620 nM | 1300 nM | 
Cc1ncc(-c2cc(-c3cc(S(=O)(=O)NCC(F)F)ccc3C)cnc2N)o1 [Example 104.10, 3-(6-amino-5-(2-methyloxazol-5-yl)pyridin-3-yl)-N-(2,2-difluoroethyl)-4-methylbenzenesulfon-amide] | 8990 nM | 270 nM | 1100 nM | 1100 nM | 
Cc1ncc(-c2cc(-c3cc(S(=O)(=O)NCC4CC4)ccc3C)cnc2N)o1 [Example 104.12, 3-(6-amino-5-(2-methyloxazol-5-yl)pyridin-3-yl)-N-(cyclopropylmethyl)-4-methylbenzenesulfon-amide] | 3810 nM | 130 nM | 1790 nM | 950 nM | 
Cc1ncc(-c2cc(-c3cc(S(=O)(=O)NCC4(CO)CCOCC4)ccc3C)cnc2N)o1 [Example 104.13, 3-(6-amino-5-(2-methyloxazol-5-yl)pyridin-3-yl)-N-((4-(hydroxymethyl)tetra-hydro-2H-pyran-4-yl)methyl)-4-methylbenzenesulfon-amide] | > 10000 nM | 240 nM | > 10000 nM | 1800 nM | 
Cc1ncc(-c2cc(-c3cc(S(=O)(=O)NC4CC4)ccc3C)cnc2N)o1 [Example 104.14, 3-(6-amino-5-(2-methyloxazol-5-yl)pyridin-3-yl)-N-cyclopropyl-4-methylbenzenesulfon-amide] | 6470 nM | 210 nM | 1460 nM | 1700 nM | 
Cc1nnc(-c2cc(-c3cc(S(=O)(=O)NCCC(C)(C)O)ccc3C)cnc2N)s1 [Example 105, 3-(6-amino-5-(5-methyl-1,3,4-thiadiazol-2-yl)pyridin-3-yl)-N-(3-hydroxy-3-methylbutyl)-4-methylbenzenesulfonamide] | 6590 nM | 1300 nM | 6380 nM | 7600 nM | 
Cc1ccc(S(=O)(=O)NCC(C)(C)O)cc1-c1cnc(N)c(-c2ccn(C)n2)c1 [Example 110, 3-(6-amino-5-(1-methyl-1H-pyrazol-3-yl)pyridin-3-yl)-N-(2-hydroxy-2-methylpropyl)-4-methylbenzenesulfonamide] | > 10000 nM | 2750 nM | 9310 nM | 9500 nM | 
